Measurements taken from patent US20050032688A1, “Use of angiotensin II fragments and analogs thereof in tissue repair” (University of Southern California, priority 1993, published 2005).

How the values were obtained:
[1] = tested on: baroreceptor-heart-reflex; settings: in vivo; cited from earlier work
[2] = tested on: neurons in the paraventricular nucleus; settings: cited from earlier work
[3] = tested on: rat adrenal medulla; settings: cited from earlier work
[4] = tested on: full thickness dermal wounds; assay: Wound closure in full thickness dermal wounds, Hydron vehicle (Example 1); format: in vivo, Male Sprague Dawley rats; settings: days 2, 5, 6, 8 and 10, FIG. 1
Experimental: Male Sprague Dawley rats, 12 weeks old, were obtained from Simonsen Laboratories, Gilroy, Calif. On the day of surgery, the rats received intramuscular ketamine/rompum anesthesia prior to preparation for surgery. The rats were shaved and scrubbed with betadine. Four 2×2 cm full thickness dermal wounds were created on the dorsal surface of the rat. Following excision of the skin, the size of wound was outlined on a glass slide and the medicament was administered in 100 μl Hydron solution comprising 10% Hydron, 1% polyethylene glycol (MW 400) and 60% ethanol. The test materials were administered in a randomized fashion; angiotensin III was evaluated at 3 and 10 μg/wound. Controls were treated with vehicle only.
After administration of the materials, the rats were bandaged and allowed to recover from anesthesia. At days 2, 5, 6, 8 and 10, the area of the skin wounds were measured under methoxyflurane anesthesia (commercially available as Metofane from Pittman-Moore, Mundelein, Ill.). The area of the wound was determined by: (1) tracing the wound shape onto graph paper (1×1 mm squares); (2) cutting out the shape; (3) weighing the paper and comparing the weight with a 2×2 cm paper cutout; and (4) counting the number of squares.

[5] = tested on: porcine coronary artery rings; settings: perhaps through nitric oxide; cited from earlier work

## Arg-Val-Tyr-Ile-His-Pro-Phe (RVYIHPF; printed: Arg-Val-Tyr-Ile-His-Pro-Phe) [AIII]
[1]
  sensitivity of the baroreceptor-heart-reflex: impairs
[2]
  excitation of neurons: excited
[3]
  evoked neuronal norepinephrine release: biphasic effect
  spontaneous neuronal norepinephrine release: biphasic effect
[4]; 3 μg/wound in 100 μl Hydron solution
  wound closure relative to vehicle-treated control: substantially accelerated
[4]; 10 μg/wound in 100 μl Hydron solution
  wound closure relative to vehicle-treated control: substantially accelerated
[5]
  dilation of coronary artery rings: not observed
